# What was measured:
# [1] = test system: CEM-SS cells; assay: Compound cytotoxicity in the HIV MTS assay (cells plus drug only); format: cell-based, human; details: 50% inhibition of cell growth
# Description: In this MTS cytoprotection assay, each experiment included cell control wells (cells only), virus control wells (cells plus virus), drug toxicity wells (cells plus drug only), drug colorimetric control wells (drug only) as well as experimental wells (drug plus cells plus virus). […] HIV-1RF was added to each well in a volume of 50 μL, the amount of virus determined to give approximately 90% cell killing at 6 days post-infection. At assay termination, assay plates were stained with the soluble tetrazolium-based dye MTS (CellTiter 96 Reagent, Promega) to determine cell viability and quantify compound toxicity. MTS is metabolized by the mitochondria enzymes of metabolically active cells to yield a soluble formazan product, providing a quantitative analysis of cell viability and compound cytotoxicity. The assay was validated in parallel experiments using Zidovudine (3′-azido-3′-deoxythymidine or AZT) as a positive control.
# [2] = test system: human hepatoma cell line ET; assay: Cytotoxicity in the replicon cell line, colorimetric assay of cell numbers; details: ET cells, 72 h; for IC50: read-out: Cytotoxicity IC50, concentration inhibiting cell viability by 50%; for IC90: read-out: Cytotoxicity IC90, concentration inhibiting cell viability by 90%
Substance,IC50 [1] [µM],IC50 [2] [µM],IC90 [2] [µM]
3-(ethoxy)-4-(gamma-hydroxymethylleucine)cyclosporin [W],> 20,> 2,> 2
3-(isopropoxy)-4-(gamma-hydroxymethylleucine)cyclosporin [V],> 20,> 2,> 2

# — patent US7718767B2, “3-ether and 3-thioether substituted cyclosporin derivatives for the treatment and prevention of hepatitis C infection” (Scynexis, Inc., priority 2006, dated 2010)
